Measured values published in US4767764A, “Alkoxyalkyl and alkylmercaptoalkyl substituted bridged benzofuroisoquinolines having opioid antagonist and/or appetite-controlling properties” (E. I. Du Pont de Nemours and Company, priority 1986, dated 1988).

The chains behind the UniProt entries cited, without tags or fusion partners. Where a name states a change or a piece, a line headed by the entry shows the natural chain unless it says otherwise.
UniProt P33534: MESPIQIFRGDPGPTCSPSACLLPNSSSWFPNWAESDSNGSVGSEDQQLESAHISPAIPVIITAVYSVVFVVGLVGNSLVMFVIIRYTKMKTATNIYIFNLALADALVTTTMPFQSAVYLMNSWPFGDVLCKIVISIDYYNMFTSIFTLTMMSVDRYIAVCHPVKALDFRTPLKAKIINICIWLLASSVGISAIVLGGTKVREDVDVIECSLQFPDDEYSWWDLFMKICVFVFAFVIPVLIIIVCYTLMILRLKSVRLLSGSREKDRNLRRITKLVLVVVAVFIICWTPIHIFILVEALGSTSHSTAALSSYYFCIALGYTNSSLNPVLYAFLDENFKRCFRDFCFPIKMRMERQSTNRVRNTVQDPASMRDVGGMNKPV
UniProt P42866, whole entry, looked up: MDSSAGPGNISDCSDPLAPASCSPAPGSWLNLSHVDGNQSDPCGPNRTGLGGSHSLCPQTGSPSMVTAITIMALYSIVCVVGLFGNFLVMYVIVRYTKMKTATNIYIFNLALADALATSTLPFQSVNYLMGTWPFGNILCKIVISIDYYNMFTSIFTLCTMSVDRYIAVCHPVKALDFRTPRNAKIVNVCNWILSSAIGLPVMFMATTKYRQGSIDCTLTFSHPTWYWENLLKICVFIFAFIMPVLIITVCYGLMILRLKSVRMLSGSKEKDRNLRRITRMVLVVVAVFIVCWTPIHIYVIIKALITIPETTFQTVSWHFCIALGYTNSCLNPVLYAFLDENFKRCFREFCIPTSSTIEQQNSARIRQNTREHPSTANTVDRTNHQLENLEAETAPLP

Tests used:
[1] = target: kappa opioid receptor (U-50,488H analgesia) (Mus musculus, UniProt P33534); assay: antagonism of U-50,488H analgesia in PQW test (kappa antagonist potency); type: in vivo, mouse (male CF1); conditions: ratio of ED50 morphine / ED50 U-50,488H antagonism
[2] = target: mu receptor (Mus musculus, UniProt P42866); conditions: in vivo, sc
[3] = test system: PQ-induced writhing in mice; assay: phenylquinone writhing test (PQW), analgesic activity; type: in vivo, mouse (male CF1); conditions: s.c.; analgesic (opioid agonist) activity
[4] = test system: kappa receptor; conditions: cited from earlier work
[5] = test system: feeding; conditions: versus morphine; cited from earlier work

Compound | kappa selectivity (morphine/U-50,488H antagonism) [1] [X] | ED50 [2] [mg/kg] | ED50, antagonism of PQ-induced writhing in mice [3] [mg/kg] | kappa receptor activity/selectivity in words [4] | stimulation of feeding [5]
Oc1cccc2c1OC1C3CCC4(CN(CC5CC5)CCC214)C(COCCCc1ccccc1)C3 (centres unmarked) [Example 7, 3-cyclopropylmethyl-5-(3-phenyl-n-propoxymethyl)-1,2,3,4,5,6,7,7a-octahydro-4a,7-ethanolbenzofuro[3,2-e]isoquinolin-9-ol] | 1.2 | 0.13 |  |  | 
CO[C@]12CC[C@@]3(C[C@@H]1C(C)(C)O)[C@H]1Cc4ccc(O)c5c4[C@@]3(CCN1CC1CC1)[C@H]2O5 | 0.19 | 0.006 | > 81 |  | 
CCC1C2Cc3ccc(O)cc3C1(CC)CCN2Cc1ccoc1 (centres unmarked) [MR 2266, reference compound] | 0.95 | 0.21 |  | relatively selective kappa antagonist | 
CN(C(=O)Cc1ccc(Cl)c(Cl)c1)[C@@H]1CCCC[C@H]1N1CCCC1 (relative stereo) |  |  |  |  | more potent stimulators of feeding than the mu agonist morphine
COCC1CC2CCC13CN(CC1CC1)CCC31c3cccc(O)c3OC21 (centres unmarked) [Example 6, 3-Cyclopropylmethyl-5-methoxymethyl-1,2,3,4,5,6,7,7a-octahydro-4a,7-ethanobenzofuro[3,2-e]isoquinolin-9-ol] | 1.1 | 0.01 |  |  | 
